Drawing on patent US20250115678A1 (AstraZeneca / MedImmune, published 2025), this text covers koff, kon and Kd for four molecules.

Usually koff stands for a measure of how fast the partners let go of each other. For orientation: kon means the second-order rate constant of association. In general, Kd refers to the concentration at which binding is half-saturated.

Holding throughout (assay): SPR single-cycle kinetics (Biacore 8K+), TCE captured on Protein G chip, LRRC15 ECD as analyte, 1:1 fit, average of 3 or 4 replicates
(SPR reads the build-up and loss of mass on a sensor chip optically.)

Experiment [1] addresses T1, human LRRC15 recombinant extracellular domain protein (human, UniProt Q8TF66 22-538).
T1 construct: extracellular domain; also called LRRC15 human
T1 sequence (looked up): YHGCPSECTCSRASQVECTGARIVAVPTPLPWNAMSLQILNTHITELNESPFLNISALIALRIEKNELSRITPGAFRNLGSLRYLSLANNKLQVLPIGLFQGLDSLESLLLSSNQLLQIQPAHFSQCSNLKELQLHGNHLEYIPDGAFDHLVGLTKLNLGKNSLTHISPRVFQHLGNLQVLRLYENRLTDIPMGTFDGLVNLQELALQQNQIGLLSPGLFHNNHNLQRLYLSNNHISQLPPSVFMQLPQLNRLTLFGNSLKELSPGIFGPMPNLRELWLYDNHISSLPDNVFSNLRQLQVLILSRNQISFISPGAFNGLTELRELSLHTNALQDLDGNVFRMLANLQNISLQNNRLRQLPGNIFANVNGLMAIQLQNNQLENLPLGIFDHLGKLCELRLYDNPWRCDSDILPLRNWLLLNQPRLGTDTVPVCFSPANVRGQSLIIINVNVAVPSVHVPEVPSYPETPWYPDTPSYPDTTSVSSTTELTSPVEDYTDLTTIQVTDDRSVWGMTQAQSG
The procedure: (§1) The affinities of the T-cell engagers to human, mouse and cyno LRRC15 recombinant proteins were measured by Surface Plasmon Resonance using a Single-Cycle Kinetics (SCK) method on a Biacore 8K+ system (CYTIVA).
(§2) The T-cell engagers were captured on a PROTEIN G chip and exposed to a series of increasing concentrations of human, mouse or cyno LRRC15 recombinant extracellular domain proteins (Acro Biosystems PROTEIN G). The fully corrected binding data were globally fitted to a 1:1 binding model to determine the KD using the Biacore™ Insight Evaluation Software (CYTIVA). Coloured sensorgram trace represents the raw data and black line the global 1:1 fit to that data. Values for kinetics parameters is shown in Table 8 are averages for 3 or 4 replicate sets of measurements.

Experiment [2] has as its target T2, cyno LRRC15 recombinant extracellular domain protein (cyno, UniProt G7NYR2 22-538).
T2 construct: extracellular domain; also called LRRC15 cyno
The procedure: as §1, §2

Experiment [3] addresses T3, mouse LRRC15 recombinant extracellular domain protein (mouse, UniProt Q80X72 22-536).
T3 construct: extracellular domain; also called LRRC15 mouse
How it is done: as §1, §2

B1: TPP-46959 (other)
light: not shown
heavy 1: EVQLVQSGAEVKKPGASVKVSCKASGYKFSSYWIEWVKQAPGQGLEWIGEILPGSDTTNYAQKFQDRVTFTSDTSISTAYMELSRLRSDDTAVYYCARDRGNYRAWFGYWGQGTLVTVSSASTKGPSVFPLAPSSKSTSGGTAALGCLVKDYFPEPVTVSWNSGALTSGVHTFPAVLQSSGLYSLSSVVTVPSSSLGTQTYICNVNHKPSNTKVDKRVEPKSCDKTGGSEVQLVESGGGLVQPGGSLRLSCVASGDVHKINFLGWYRQAPGKEREKVAHISIGDQTDYADSAKGRFTISRDESKNMVYLQMNSLKPEDTAVYFCRAFSRIYPYDYWGQGTLVTVSSGGGGSTHTCPPCPAPPVAGPSVFLFPPKPKDTLMISRTPEVTCVVVDVKHEDPEVKFNWYVDGVEVHNAKTKPREEQYNSTYRVVSVLTVLHQDWLNGKEYKCKVSNKALPAPIEKTISKAKGQPREPQVCTLPPSREEMTKNQVSLSCAVKGFYPSDIAVEWESNGQPENNYKTTPPVLDSDGSFFLVSKLTVDKSRWQQGNVFSCSVMHEALHNRFTQKSLSLSPGK
heavy 2: EVQLVQSGAEVKKPGASVKVSCKASGYKFSSYWIEWVKQAPGQGLEWIGEILPGSDTTNYAQKFQDRVTFTSDTSISTAYMELSRLRSDDTAVYYCARDRGNYRAWFGYWGQGTLVTVSSASTKGPSVFPLAPSSKSTSGGTAALGCLVKDYFPEPVTVSWNSGALTSGVHTFPAVLQSSGLYSLSSVVTVPSSSLGTQTYICNVNHKPSNTKVDKRVEPKSCDKTGGSEVQLLESGGGLVQPGGSLRLSCAASGFTFTDYAIGWFRQAPGKEREGVSCIRVSDGSTYYADSVKGRFTISRDSSKNTLYLQMNSLRAEDTAVYYCAAGSLYTCVQSIVWPARPYYDMDYWGQGTLVTVSSGGGGSTHTCPPCPAPPVAGPSVFLFPPKPKDTLMISRTPEVTCVVVDVKHEDPEVKFNWYVDGVEVHNAKTKPREEQYNSTYRVVSVLTVLHQDWLNGKEYKCKVSNKALPAPIEKTISKAKGQPREPQVYTLPPCREEMTKNQVSLWCLVKGFYPSDIAVEWESNGQPENNYKTTPPVLDSDGSFFLYSKLTVDKSRWQQGNVFSCSVMHEALHNHYTQKSLSLSPGK
notes: T-cell engager in the CD8/TCR format: 2x LRRC15 Fab, 1x TCR VHH, 1x CD8 VHH; Residue 55 of L-CDR2 is E
For the molecule B1, in experiment [1], the koff was 0.000468 s⁻¹ and the kon is 351000 M⁻¹ s⁻¹. In addition, in experiment [2], the koff was 0.000568 s⁻¹ and the on-rate (kon) turned out to be 189000 M⁻¹ s⁻¹. In experiment [3], the Kd worked out at 608 pM, the koff was found to be 0.000144 s⁻¹ and the kon is 238000 M⁻¹ s⁻¹.

B2: TPP-46957 (other)
light: not shown
heavy 1: EVQLVQSGAEVKKPGASVKVSCKASGYKFSSYWIEWVKQAPGQGLEWIGEILPGSDTTNYAQQFQDRVTFTSDTSISTAYMELSRLRSDDTAVYYCARDRGNYRAWFGYWGQGTLVTVSSASTKGPSVFPLAPSSKSTSGGTAALGCLVKDYFPEPVTVSWNSGALTSGVHTFPAVLQSSGLYSLSSVVTVPSSSLGTQTYICNVNHKPSNTKVDKRVEPKSCDKTGGSEVQLVESGGGLVQPGGSLRLSCVASGDVHKINFLGWYRQAPGKEREKVAHISIGDQTDYADSAKGRFTISRDESKNMVYLQMNSLKPEDTAVYFCRAFSRIYPYDYWGQGTLVTVSSGGGGSTHTCPPCPAPPVAGPSVFLFPPKPKDTLMISRTPEVTCVVVDVKHEDPEVKFNWYVDGVEVHNAKTKPREEQYNSTYRVVSVLTVLHQDWLNGKEYKCKVSNKALPAPIEKTISKAKGQPREPQVCTLPPSREEMTKNQVSLSCAVKGFYPSDIAVEWESNGQPENNYKTTPPVLDSDGSFFLVSKLTVDKSRWQQGNVFSCSVMHEALHNRFTQKSLSLSPGK
heavy 2: EVQLVQSGAEVKKPGASVKVSCKASGYKFSSYWIEWVKQAPGQGLEWIGEILPGSDTTNYAQQFQDRVTFTSDTSISTAYMELSRLRSDDTAVYYCARDRGNYRAWFGYWGQGTLVTVSSASTKGPSVFPLAPSSKSTSGGTAALGCLVKDYFPEPVTVSWNSGALTSGVHTFPAVLQSSGLYSLSSVVTVPSSSLGTQTYICNVNHKPSNTKVDKRVEPKSCDKTGGSEVQLLESGGGLVQPGGSLRLSCAASGFTFTDYAIGWFRQAPGKEREGVSCIRVSDGSTYYADSVKGRFTISRDSSKNTLYLQMNSLRAEDTAVYYCAAGSLYTCVQSIVWPARPYYDMDYWGQGTLVTVSSGGGGSTHTCPPCPAPPVAGPSVFLFPPKPKDTLMISRTPEVTCVVVDVKHEDPEVKFNWYVDGVEVHNAKTKPREEQYNSTYRVVSVLTVLHQDWLNGKEYKCKVSNKALPAPIEKTISKAKGQPREPQVYTLPPCREEMTKNQVSLWCLVKGFYPSDIAVEWESNGQPENNYKTTPPVLDSDGSFFLYSKLTVDKSRWQQGNVFSCSVMHEALHNHYTQKSLSLSPGK
notes: T-cell engager in the CD8/TCR format: 2x LRRC15 Fab, 1x TCR VHH, 1x CD8 VHH
Take B2: in experiment [1], the koff is 0.0006 s⁻¹ and the kon is 264000 M⁻¹ s⁻¹. In addition, in experiment [2], the koff worked out at 0.00075 s⁻¹ and the kon amounted to 165000 M⁻¹ s⁻¹. In experiment [3], the dissociation constant (Kd) stood at 953 pM, the off-rate constant (koff) is 0.000188 s⁻¹ and the on-rate constant (kon) was found to be 198000 M⁻¹ s⁻¹.

B3: TPP-46958 (other)
light: not shown
heavy 1: EVQLVQSGAEVKKPGASVKVSCKASGYKFSSYWIEWVKQAPGQGLEWIGEILPGSDATNYAQKFQDRVTFTSDTSISTAYMELSRLRSDDTAVYYCARDRGNYRAWFGYWGQGTLVTVSSASTKGPSVFPLAPSSKSTSGGTAALGCLVKDYFPEPVTVSWNSGALTSGVHTFPAVLQSSGLYSLSSVVTVPSSSLGTQTYICNVNHKPSNTKVDKRVEPKSCDKTGGSEVQLVESGGGLVQPGGSLRLSCVASGDVHKINFLGWYRQAPGKEREKVAHISIGDQTDYADSAKGRFTISRDESKNMVYLQMNSLKPEDTAVYFCRAFSRIYPYDYWGQGTLVTVSSGGGGSTHTCPPCPAPPVAGPSVFLFPPKPKDTLMISRTPEVTCVVVDVKHEDPEVKFNWYVDGVEVHNAKTKPREEQYNSTYRVVSVLTVLHQDWLNGKEYKCKVSNKALPAPIEKTISKAKGQPREPQVCTLPPSREEMTKNQVSLSCAVKGFYPSDIAVEWESNGQPENNYKTTPPVLDSDGSFFLVSKLTVDKSRWQQGNVFSCSVMHEALHNRFTQKSLSLSPGK
heavy 2: EVQLVQSGAEVKKPGASVKVSCKASGYKFSSYWIEWVKQAPGQGLEWIGEILPGSDATNYAQKFQDRVTFTSDTSISTAYMELSRLRSDDTAVYYCARDRGNYRAWFGYWGQGTLVTVSSASTKGPSVFPLAPSSKSTSGGTAALGCLVKDYFPEPVTVSWNSGALTSGVHTFPAVLQSSGLYSLSSVVTVPSSSLGTQTYICNVNHKPSNTKVDKRVEPKSCDKTGGSEVQLLESGGGLVQPGGSLRLSCAASGFTFTDYAIGWFRQAPGKEREGVSCIRVSDGSTYYADSVKGRFTISRDSSKNTLYLQMNSLRAEDTAVYYCAAGSLYTCVQSIVWPARPYYDMDYWGQGTLVTVSSGGGGSTHTCPPCPAPPVAGPSVFLFPPKPKDTLMISRTPEVTCVVVDVKHEDPEVKFNWYVDGVEVHNAKTKPREEQYNSTYRVVSVLTVLHQDWLNGKEYKCKVSNKALPAPIEKTISKAKGQPREPQVYTLPPCREEMTKNQVSLWCLVKGFYPSDIAVEWESNGQPENNYKTTPPVLDSDGSFFLYSKLTVDKSRWQQGNVFSCSVMHEALHNHYTQKSLSLSPGK
notes: as for B2
In the case of B3, in experiment [1], the koff is 0.000877 s⁻¹ and the on-rate (kon) was 283000 M⁻¹ s⁻¹. In experiment [2], the koff worked out at 0.00109 s⁻¹ and the association rate constant (kon) was found to be 170000 M⁻¹ s⁻¹. Further, in experiment [3], the equilibrium dissociation constant (Kd) was found to be 1750 pM, the koff came to 0.000343 s⁻¹ and the on-rate constant (kon) was 196000 M⁻¹ s⁻¹.

B4: TPP-46956 (other)
light: not shown
heavy 1: EVQLVQSGAEVKKPGASVKVSCKASGYKFSSYWIEWVKQAPGQGLEWIGEILPGSDTTNYAQNFQDRVTFTSDTSISTAYMELSRLRSDDTAVYYCARDRGNYRAWFGYWGQGTLVTVSSASTKGPSVFPLAPSSKSTSGGTAALGCLVKDYFPEPVTVSWNSGALTSGVHTFPAVLQSSGLYSLSSVVTVPSSSLGTQTYICNVNHKPSNTKVDKRVEPKSCDKTGGSEVQLVESGGGLVQPGGSLRLSCVASGDVHKINFLGWYRQAPGKEREKVAHISIGDQTDYADSAKGRFTISRDESKNMVYLQMNSLKPEDTAVYFCRAFSRIYPYDYWGQGTLVTVSSGGGGSTHTCPPCPAPPVAGPSVFLFPPKPKDTLMISRTPEVTCVVVDVKHEDPEVKFNWYVDGVEVHNAKTKPREEQYNSTYRVVSVLTVLHQDWLNGKEYKCKVSNKALPAPIEKTISKAKGQPREPQVCTLPPSREEMTKNQVSLSCAVKGFYPSDIAVEWESNGQPENNYKTTPPVLDSDGSFFLVSKLTVDKSRWQQGNVFSCSVMHEALHNRFTQKSLSLSPGK
heavy 2: EVQLVQSGAEVKKPGASVKVSCKASGYKFSSYWIEWVKQAPGQGLEWIGEILPGSDTTNYAQNFQDRVTFTSDTSISTAYMELSRLRSDDTAVYYCARDRGNYRAWFGYWGQGTLVTVSSASTKGPSVFPLAPSSKSTSGGTAALGCLVKDYFPEPVTVSWNSGALTSGVHTFPAVLQSSGLYSLSSVVTVPSSSLGTQTYICNVNHKPSNTKVDKRVEPKSCDKTGGSEVQLLESGGGLVQPGGSLRLSCAASGFTFTDYAIGWFRQAPGKEREGVSCIRVSDGSTYYADSVKGRFTISRDSSKNTLYLQMNSLRAEDTAVYYCAAGSLYTCVQSIVWPARPYYDMDYWGQGTLVTVSSGGGGSTHTCPPCPAPPVAGPSVFLFPPKPKDTLMISRTPEVTCVVVDVKHEDPEVKFNWYVDGVEVHNAKTKPREEQYNSTYRVVSVLTVLHQDWLNGKEYKCKVSNKALPAPIEKTISKAKGQPREPQVYTLPPCREEMTKNQVSLWCLVKGFYPSDIAVEWESNGQPENNYKTTPPVLDSDGSFFLYSKLTVDKSRWQQGNVFSCSVMHEALHNHYTQKSLSLSPGK
notes: as for B2
B4: in experiment [1], the off-rate (koff) was 0.000684 s⁻¹ and the on-rate (kon) amounted to 305000 M⁻¹ s⁻¹. Also, in experiment [2], the koff was 0.000818 s⁻¹ and the kon worked out at 170000 M⁻¹ s⁻¹. Further, in experiment [3], the Kd is 1010 pM, the dissociation rate constant (koff) worked out at 0.000206 s⁻¹ and the on-rate constant (kon) amounted to 205000 M⁻¹ s⁻¹.
